# Laboratory results published in PubChem BioAssay AID651661 (Broad Institute, 2012).
# The entries are a selection whose mix differs from that of the whole data set. Activity calls are given as the source filed them.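 The calls were made as follows: active = mean inhibition of at least 50% after viability correction, with every replicate also passing that limit; inconclusive = mean reaches 50% but only one of two replicates passes; inactive = the rest.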
# Assay: EWS/Fli-driven NR0B1 reporter inhibitors, primary screen, A673 cells, NR0B1 luciferase, luminescence, MLPCN library (AID 651661);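 also: firefly luciferase signal divided by Alamar Blue viability fluorescence both relative to DMSO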
# Conditions: viability-normalised, at 12.6 µM, hits give high values
row,Structure (SMILES),inhibition
1,O=C(O)c1ccccc1[As](=O)(O)O,inactive: -1.04%
2,CC(=O)Nc1ccc([As](=O)(O)O)cc1,inactive: -1.46%
3,CCCC1OP(N)(=O)OCC1CC (stereo not drawn),inactive: -6.44%
4,CN(C)P(=O)(N(C)C)n1c(Nc2ccccc2)nnc1-c1ccccc1,inactive: -17.7%
5,O=P(Nc1nc2ccc(Cl)cc2s1)(c1ccccc1)c1ccccc1,inactive: 4.39%
6,Cc1ccc(NP(=O)(Oc2ccccc2F)Oc2ccccc2F)nc1,inactive: 5.93%
7,CN(C(=O)Cc1ccc(Cl)c(Cl)c1)[C@H]1CCCC[C@@H]1N1CCCC1,inactive: -2.69%
8,CCn1c(=O)n(C2CCN(CC3CCCCCCC3)C[C@H]2CO)c2ccccc21 (stereo partly drawn),inactive: 6.12%
9,CC(=O)NC(SC(=S)N(CC(C)C)CC(C)C)C(Cl)(Cl)Cl (stereo not drawn),inactive: -20.3%
10,Cc1ccc(OP(=O)(Nc2ccccn2)Oc2ccc(C)cc2)cc1,inactive: 8.18%
11,O=C(OC1CN2CCC1CC2)c1ccccc1 (stereo not drawn),inactive: -1.37%
12,Cc1ccccc1OP(=O)(Nc1ccccn1)Oc1ccccc1C,inactive: 8.55%
13,CC(NC(=O)COC(=O)C(O)(c1ccccc1)c1ccccc1)c1ccccc1 (stereo not drawn),inactive: 8.7%
14,CN(C)C(=O)Oc1noc2ccccc12,inactive: -3.73%
15,O=c1c2cc([N+](=O)[O-])ccc2[nH]c2c([N+](=O)[O-])cc([N+](=O)[O-])cc12,inactive: 31.6%
16,CCNC(=S)/N=C(\N)N[N+](=O)[O-],inactive: -6.55%
17,O=C(NC1CCS(=O)(=O)C1)NP(=S)(Oc1ccccc1)Oc1ccccc1 (stereo not drawn),inactive: 11.4%
18,c1ccc(-c2nn[nH]n2)c(-c2nn[nH]n2)c1,inactive: 13.1%
19,Cc1ccc(NP(=O)(Oc2cccc(C)c2)Oc2cccc(C)c2)nc1,inactive: 3.09%
20,O=P1(N(CCCl)CCCl)OCCC2CCCCN21 (stereo not drawn),inactive: 1.2%
21,N#C/C(=C\c1ccc(N(CCBr)CCBr)cc1)C(N)=O,inactive: 28.3%
22,CC(=O)c1ccc(N2CC2c2ccncc2)cc1 (stereo not drawn),inactive: 7.31%

row,Structure (SMILES),inhibition
1,COC(=O)C1(C)COP(=O)(NCc2ccccc2)OC1 (stereo not drawn),inactive: 5.72%
2,Cc1ccccc1CN(C)C(=O)COC(=O)C(O)(c1ccccc1)c1ccccc1,inactive: -1.05%
3,C[C@@H]1C=CCP(=O)(Oc2ccccc2)O1 (stereo partly drawn),inactive: -0.833%
4,C[C@H]1OP(=O)(Oc2ccccc2)C[C@@H]2O[C@@H]21 (stereo partly drawn),inactive: -1.65%
5,CC(=O)Nc1ccc([As](=O)(O)O)c(O)c1,inactive: 5.17%
6,CC(=O)Nc1ccc(Oc2c([N+](=O)[O-])cc([N+](=O)[O-])cc2[N+](=O)[O-])cc1,inactive: -11.8%
7,CCOc1ccc(C2=NCC(CBr)S2)cc1 (stereo not drawn),inactive: -1.23%
8,CCc1cc(O)c([N+](=O)[O-])c(C)c1[N+](=O)[O-],inactive: 0.25%
9,CC(C)(C)C(=O)NC(Sc1ccccc1)C(Cl)(Cl)Cl (stereo not drawn),inactive: -14.4%
10,CC(=O)NC(SC(=S)N(C)C)C(Cl)(Cl)Cl (stereo not drawn),inactive: 15.7%
11,O=[N+]([O-])c1ncn(CCn2cnc([N+](=O)[O-])n2)n1,inactive: 2.55%
12,O=[As](O)(c1ccccc1)c1ccc(O)cc1,inactive: -3.85%
13,C/C(N)=N\P(=O)(OCc1ccccc1)OCc1ccccc1,inactive: 9.29%
14,Nc1ccc([As](=O)(O)c2ccc([N+](=O)[O-])cc2)cc1,inactive: -4.46%
15,C(Cc1nn[nH]n1)Cc1nn[nH]n1,inactive: 8.73%
16,Nc1ccc(CCCCOc2ccccc2)cc1,inactive: -7.89%
17,COc1ccc(N)c([N+](=O)[O-])c1[N+](=O)[O-],inactive: -1.65%
18,O=P(Nc1ccccn1)(c1ccc(Br)cc1)c1ccc(Br)cc1,inactive: 0.702%
19,CN(C)C1(CNC(=O)c2ccc(Cl)c(S(N)(=O)=O)c2)CCCCC1,inactive: 0.674%
20,O=P(Nc1nc2ccccc2s1)(c1ccccc1)c1ccccc1,inactive: 1.77%
21,C[C@H]1OP(=O)(Oc2ccccc2)[C@H](O)[C@H](O)[C@H]1N=[N+]=[N-] (stereo partly drawn),inactive: 4.03%
